Results reported in article PMC8002113.

Molecular target: Recombinant human DNase1L2, short isoform (DNase1L2-S) (human) (UniProt Q92874)

G-actin from rabbit muscle (from UniProt P68135 1-377) (natural protein)
decrease of the viscosity of CF artificial mucus after 90 s by 5 units of DNase1L2 (20 ng/μL; 690 nM) in the presence of 0.2 mg/mL actin (~80% without actin): 50%
